Measurements reported in patent US20050137135A1 (priority 2002, published 2005).

Tested on: INS-1 (832/13) cells
Assay: Cell survival during glucose deprivation (CYQUANT)
Type: cell-based
Details: 0 mM glucose, n=4, FIG. 16B
Procedure: Cell passages 45-60 were used.
Cells were seeded into 96-well plates (5×10^4 cells/well) prior to experimentation. […] Cells were quantified using the CYQUANT™ assay system (Molecular Probes, Eugene, Oreg., USA) according to the manufacturers' protocol.
Cell survival was assessed in the presence of prolonged glucose deprivation.

CC[C@H](C)[C@H](NC(=O)[C@H](CO)NC(=O)[C@H](Cc1ccc(O)cc1)NC(=O)[C@H](CC(=O)O)NC(=O)[C@H](CO)NC(=O)[C@@H](NC(=O)[C@H](Cc1ccccc1)NC(=O)[C@@H](NC(=O)CNC(=O)[C@H](CCC(=O)O)NC(=O)[C@H](C)NC(=O)[C@@H](N)Cc1ccc(O)cc1)[C@@H](C)O)[C@@H](C)CC)C(=O)N[C@@H](C)C(=O)N[C@@H](CCSC)C(=O)N[C@@H](CC(=O)O)C(=O)N[C@@H](CCCCN)C(=O)N[C@H](C(=O)N[C@@H](Cc1c[nH]cn1)C(=O)N[C@@H](CCC(N)=O)C(=O)N[C@@H](CCC(N)=O)C(=O)N[C@@H](CC(=O)O)C(=O)N[C@@H](Cc1ccccc1)C(=O)N[C@H](C(=O)N[C@@H](CC(N)=O)C(=O)N[C@@H](Cc1c[nH]c2ccccc12)C(=O)N[C@@H](CC(C)C)C(=O)N[C@@H](CC(C)C)C(=O)N[C@@H](C)C(=O)N[C@@H](CCC(N)=O)C(=O)N[C@@H](CCCCN)C(=O)NCC(=O)N[C@@H](CCCCN)C(=O)N[C@@H](CCCCN)C(=O)N[C@@H](CC(N)=O)C(=O)N[C@@H](CC(=O)O)C(=O)N[C@@H](Cc1c[nH]c2ccccc12)C(=O)N[C@@H](CCCCN)C(=O)N[C@@H](Cc1c[nH]cn1)C(=O)N[C@@H](CC(N)=O)C(=O)N[C@H](C(=O)N[C@H](C(=O)N[C@@H](CCC(N)=O)C(=O)O)[C@@H](C)O)[C@@H](C)CC)C(C)C)[C@@H](C)CC [GIP, glucose-dependent insulinotropic polypeptide]
EC50: 1.24 ± 0.48 nM
